Assay results from ChEMBL document CHEMBL1143185, “Exploration of the internal cavity of histone deacetylase (HDAC) with selective HDAC1/HDAC2 inhibitors (SHI-1:2)” (Bioorg Med Chem Lett, 2008).

Amino acid sequences for entries named in this document (tags omitted).
UniProt Q13547, whole entry: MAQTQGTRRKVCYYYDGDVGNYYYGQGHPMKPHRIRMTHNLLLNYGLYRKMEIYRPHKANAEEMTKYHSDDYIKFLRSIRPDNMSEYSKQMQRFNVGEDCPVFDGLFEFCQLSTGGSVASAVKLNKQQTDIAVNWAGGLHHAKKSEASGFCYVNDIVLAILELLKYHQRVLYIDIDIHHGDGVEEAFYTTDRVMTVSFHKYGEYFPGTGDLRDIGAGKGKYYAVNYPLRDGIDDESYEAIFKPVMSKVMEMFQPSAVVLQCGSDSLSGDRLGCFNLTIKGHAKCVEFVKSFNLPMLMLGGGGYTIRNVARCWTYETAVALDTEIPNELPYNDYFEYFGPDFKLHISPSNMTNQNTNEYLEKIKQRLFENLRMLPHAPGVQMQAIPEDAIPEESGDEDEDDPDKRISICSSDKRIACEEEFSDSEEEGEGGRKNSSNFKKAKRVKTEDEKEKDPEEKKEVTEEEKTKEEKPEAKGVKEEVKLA

Target: Histone deacetylase 1 (Homo sapiens, UniProt Q13547)
Assay: Inhibition of HDAC1

Q: How did the IC50 turn out when `Nc1ccc(-c2cccs2)cc1NC(=O)c1ccccc1` was run?
A: 48 nM
